The record followed here is patent US6416738B1, “Pretargeting methods and compounds” (NeoRx Corporation, priority 1973, dated 2002).

Amino acid sequences for entries named in this document (tags omitted). Residues count along the entry.
UniProt P22629, 25-183: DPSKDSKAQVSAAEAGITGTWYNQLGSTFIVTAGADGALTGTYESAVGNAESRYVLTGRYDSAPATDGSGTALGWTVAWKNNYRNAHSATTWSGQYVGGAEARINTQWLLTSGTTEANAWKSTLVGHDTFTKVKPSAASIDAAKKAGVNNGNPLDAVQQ

The target of this test is T1, circulating MAb-StrAv conjugate (Streptomyces avidinii, UniProt P22629).
T1 construct: NR-LU-10 whole antibody (murine IgG2b), chemically conjugated via SMCC to DTT-reduced antibody; made in house
The test is described as follows: G-HSA-B clearing agent evaluation and dose ranging. Format: in vivo, mice.

Regarding “G-HSA-B: human serum albumin derivatized with 12-15 galactoses and 1 to 9 biotins”, where the note is “9, 5 or 2 biotins/molecule, equal protein doses”, the “clearance of MAb-StrAv from blood” value is “effective, rapid clearance of MAb-StrAv from blood”. Further, for the setting “9 biotins and 12-15 galactose residues per molecule”, the “dose giving optimal balance between blood clearance and tumor retention” value is approximately 40 microgram. Under “70 micrograms, 12-15 galactose residues and 9 biotins”, the “removal of StrAv-MAb from circulation” value was “effective in removing StrAv-MAb from circulation”. In addition, the “dose range giving optimal tumor to background targeting” value (G-HSA-B with one biotin/molecule) is given as 90 to 180 micrograms.
